Ab-14 heavy chain CDR variants: yeast mating affinities

Antigen: PDVDLGDISGINAS, a 14-residue peptide of the SARS-CoV-2 spike HR2 region.

Parent scFv Ab-14: VH joined to VL by a 15-residue (Gly4Ser)3 linker. Changes lie in the heavy chain CDRs alone.
VH: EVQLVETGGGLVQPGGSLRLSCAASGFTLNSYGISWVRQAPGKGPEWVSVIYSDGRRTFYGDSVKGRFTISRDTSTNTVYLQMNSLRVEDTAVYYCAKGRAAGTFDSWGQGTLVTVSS
VL: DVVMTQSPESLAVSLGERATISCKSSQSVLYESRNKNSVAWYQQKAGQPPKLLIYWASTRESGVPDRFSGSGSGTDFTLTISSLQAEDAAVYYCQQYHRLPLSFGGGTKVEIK

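The parent was found by panning a naive human phage display library on the peptide. In library AAYL49, one, two or three CDR residues were substituted; doubles and triples were drawn at random. Affinity was read by AlphaSeq, a pooled yeast mating assay with surface-displayed partners. Mating (16 h, 30 °C) was followed by selection of diploids and sequencing of their barcodes. A regression on co-assayed BCL2-family reference pairs converts the normalised counts of each replicate to an apparent Kd. Mating was done three times.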

The parent's heavy chain CDRs are GFTLNSYGIS, VIYSDGRRTFYGDSVK, GRAAGTFDS; each variant's own CDRs replace them letter for letter. All variants listed here change I51 of the VH, counted from its first residue. Kd is apparent (estimated from mating counts) and averaged on the log scale over replicates with a signal. Smaller is tighter. "no signal" marks a missing value. The strain was present, yet no cells mated with the target were sequenced in any replicate, which points to weak or no binding. Parent in this assay: reference entry 4.4 nM, copy in this library 13 µM (one replicate of three). Background: pairings of library AAYL49 with three empty control strains gave a value in 15% of cases (median 11 µM, 5th percentile 680 nM). Values in that range, when seen in few replicates, are hard to tell from nonspecific mating.

| CDR-H1 | CDR-H2 | CDR-H3 | Kd (apparent) | detected |
|---|---|---|---|---|
| GFTLNSYIIS | VLYSDGRRTKYGDSVK | GRAAGTFDS | 4.9 µM | 1 of 3 |
| GFTLNSYGIS | VRYPDGRRDFYGDSVK | GRAAGTFDS | 41 µM | 2 of 3 |
| GFTLNGYGIS | VCYSDGDRTFYGDSVK | GRAAGTFDS | 53 µM | 3 of 3 |
| GFTLNSYGIS | VTYSDGMRTFYGDSVK | GRAAGTFDP | 12 µM | 1 of 3 |
| GFTLNSYGIS | VSYSDNYRTFYGDSVK | GRAAGTFDS | 8.2 µM | 2 of 3 |
| GFTLNKYGIS | VAYSDGQRTFYGDSVK | GRAAGTFDS | 690 nM | 3 of 3 |
| GFTLNSYGIS | VFYSDGRRTFYGDSVK | GRPAGPFDS | no signal | 0 of 3 |
| GYTLNSYGIS | VWYSDGRRTFYGDSVK | GRAAGTFDS | no signal | 0 of 3 |
| GFTLNSYGIQ | VLYSDGRRTFYGDSVK | GRAAGTFDS | no signal | 0 of 3 |
| GFTLNSYGIS | VEYEDGRRTFYGDSVK | GRAAGTADS | no signal | 0 of 3 |
| GFTLNSYGKS | VDYSDGRRTFYGDSVK | GEAAGTFDS | no signal | 0 of 3 |
| GFTLWSYGIS | VRYSDGRRTFYGDSVK | GRAAGTFDS | 46 µM | 1 of 3 |
| GFTLNSNGIS | VEYSDGRRTFYGDSVK | GRAAGTFDV | 610 µM | 1 of 3 |
| GFTLNSYPIS | VFYSDGRRTFYGDSVK | GRAAGTFGS | no signal | 0 of 3 |
| GFTLNSYGIS | VQYSNGRRTFYGDSVK | GRAAGTFDS | no signal | 0 of 3 |
| GFGDNSYGIS | VSYSDGRRTFYGDSVK | GRAAGTFDS | 8.3 µM | 1 of 3 |
| GFTLTSYGIS | VNYSDGRRTFYGDPVK | GRAAGTFDS | 110 µM | 1 of 3 |
| GFTLNSYGIS | VGTSDGRRTFYGDSVK | GRAAHTFDS | no signal | 0 of 3 |
| GFTLNSYGIS | PAYSDIRRTFYGDSVK | GRAAGTFDS | 160 µM | 3 of 3 |
| GFTLNSYGIS | VTYSDGRRTFYGLSVK | GRIAGTFDS | no signal | 0 of 3 |
| GFTLNSYGIS | VKYSDGERTFYGDSVK | GRAAGTFHS | 10 µM | 1 of 3 |
| GFTLNSYGIS | VEYSDGRRTFYGDSVK | GRAAGTKDW | no signal | 0 of 3 |
| GFTLNSYGIS | VLYSDGRRTFYGDSIK | GRAAGTVDS | 8.9 µM | 2 of 3 |
| GFTLNSYGIS | VRYNDGRRTDYGDSVK | GRAAGTFDS | 8.9 µM | 2 of 3 |
| GFTLNGYGIS | VAYSDGRRTFYGDSVK | GRAAGTFDH | 100 µM | 1 of 3 |
| GFTLNSYGIS | VNYSDGRRTFYGDSVK | GRAAGTFDS | 110 µM | 3 of 3 |
| GFTLNSYGIS | VWYSDGRRTFYGDSVV | GRACGTFDS | no signal | 0 of 3 |
| GFTLNSYGIS | VFYSDGRRTFYGDSVK | GRAAGTFDS | 8.4 µM | 1 of 3 |
| GFTLNSYGIS | VGYSDGCRTFYGDSVK | GRAAGTFDS | 2.2 µM | 2 of 3 |
| GFTLNSYGIN | VYYSDGRRTFYGQSVK | GRAAGTFDS | no signal | 0 of 3 |
| GFTLNSYGIS | VCYSDGRRTFYGDSVK | GRAAGCFDS | no signal | 0 of 3 |
| GFTLNSYGIS | VTYSDGRRTFYMDSVK | GRAASTFDS | no signal | 0 of 3 |
| GFTLNIYGIS | VWYSDGRRQFYGDSVK | GRAAGTFDS | 7.8 µM | 2 of 3 |
| GFWLNSYFIS | VTYSDGRRTFYGDSVK | GRAAGTFDS | no signal | 0 of 3 |
| GFTLFSYGIS | VQYSDGRRTFYGMSVK | GRAAGTFDS | no signal | 0 of 3 |
| GFTLNSYGIS | VWYSDGRRTFYGDSVK | GRAAGEFNS | no signal | 0 of 3 |
| GFTLNSYGIC | VYYSDHRRTFYGDSVK | GRAAGTFDS | no signal | 0 of 3 |
| GFTLNSYGIS | VDYSDGRRTFYKDSVK | GRAAGTFDS | 150 µM | 1 of 3 |
| GFTLNSYGIS | VEYSDVRRTFYGDSVK | GRAAGNFDS | 1.1 µM | 1 of 3 |
| GFTLNSFGIS | VQYSDGRRTFYGDSVK | GSAAGTFDS | no signal | 0 of 3 |
| GFTLNSYGIL | VQMSDGRRTFYGDSVK | GRAAGTFDS | no signal | 0 of 3 |
| GFTLNSYGIS | VKYSDGRRTFYGDMVK | GRAAGTTDS | 29 µM | 2 of 3 |
| GQRLNSYGIS | VNYSDGRRTFYGDSVK | GRAAGTFDS | no signal | 0 of 3 |
| GFTLNSYGIS | VGYSDMRRTYYGDSVK | GRAAGTFDS | 60 µM | 1 of 3 |
| GKTLNSYGIS | VEYSDGRRTFYGDSVK | GRAAGVFDS | 62 µM | 1 of 3 |
| GFTLNSYGIS | VLYSDGRRTFYGDSVK | GARAGTFDS | no signal | 0 of 3 |
| GFTLNSQGIS | VHYSDGRRTHYGDSVK | GRAAGTFDS | no signal | 0 of 3 |
| GVTLNSYGIS | VQYSDGRRTFYGDSVK | GRAAGTFDS | 34 µM | 1 of 3 |
| GTTLNKYGIS | VDYSDGRRTFYGDSVK | GRAAGTFDS | no signal | 0 of 3 |
| GFTLNSYGIS | VNYSDGRRTFYGDSVK | GRAASTFDS | 66 µM | 2 of 3 |
| GFTLNDYGIS | VCYSDGRRTFYGDSVK | GRAAGTFDS | 45 nM | 3 of 3 |
| GFTLNSYGIS | VSYSDGRRTFYGDSSK | GRAAFTFDS | 22 µM | 3 of 3 |
| GFTLNSYGIS | VHYYDGRRTFVGDSVK | GRAAGTFDS | no signal | 0 of 3 |
| GFTLNSYGID | VQYSDGRRTFYGDSVK | GRAAFTFDS | no signal | 0 of 3 |
| GFTLNSYGIS | VGYSDGRRTFYGDSVK | GRSHGTFDS | 5.7 µM | 2 of 3 |
| GFTLNSYGIS | VPYSDGRSTFYVDSVK | GRAAGTFDS | no signal | 0 of 3 |
| GFMLNSYGIS | VVYSDGRRTFYGDSVK | GRAAGTIDS | no signal | 0 of 3 |
| GFTLNSYGIS | VKYSDGRRTFYGDSVK | ERAAGTFDG | 58 µM | 3 of 3 |
| GFTLNSYGIS | VLYSDGRRTFIGDSVK | GRAAGNFDS | 110 µM | 2 of 3 |
| GLTLNSYGIS | VGYSDGRRTFYGDLVK | GRAAGTFDS | 2.7 µM | 1 of 3 |
| GFTLNSYGII | VWYSDGRRTFYGDSVK | GRAAGTWDS | no signal | 0 of 3 |
| GFTLNSYGIS | VDYSDGRRTFYGDNVK | GRAAGTFDS | no signal | 0 of 3 |
| GFTINSYGIS | VTYSDGRRTFYGDSVK | GPAAGTFDS | 1.5 µM | 1 of 3 |
| GFTLGSYGIS | VTYSDGRRTSYGDSVK | GRAAGTFDS | no signal | 0 of 3 |
| GFTLNSYGAS | VRYSDGRRTFYSDSVK | GRAAGTFDS | no signal | 0 of 3 |
| GFTLNSYGIS | FGYSDGPRTFYGDSVK | GRAAGTFDS | no signal | 0 of 3 |
| GFTLNSYGES | VYYSDGRRSFYGDSVK | GRAAGTFDS | no signal | 0 of 3 |
| GFTLNSYGIS | VMMSDGRRTFYGDSVK | GYAAGTFDS | 1.2 µM | 1 of 3 |
| GFTLTTYGIS | VCYSDGRRTFYGDSVK | GRAAGTFDS | 22 µM | 2 of 3 |

The 7 strongest on average among those seen in every replicate, once more:

| CDR-H1 | CDR-H2 | CDR-H3 | Kd (apparent) | detected |
|---|---|---|---|---|
| GFTLNDYGIS | VCYSDGRRTFYGDSVK | GRAAGTFDS | 45 nM | 3 of 3 |
| GFTLNKYGIS | VAYSDGQRTFYGDSVK | GRAAGTFDS | 690 nM | 3 of 3 |
| GFTLNSYGIS | VSYSDGRRTFYGDSSK | GRAAFTFDS | 22 µM | 3 of 3 |
| GFTLNGYGIS | VCYSDGDRTFYGDSVK | GRAAGTFDS | 53 µM | 3 of 3 |
| GFTLNSYGIS | VKYSDGRRTFYGDSVK | ERAAGTFDG | 58 µM | 3 of 3 |
| GFTLNSYGIS | VNYSDGRRTFYGDSVK | GRAAGTFDS | 110 µM | 3 of 3 |
| GFTLNSYGIS | PAYSDIRRTFYGDSVK | GRAAGTFDS | 160 µM | 3 of 3 |

Data: MIT Lincoln Laboratory AlphaSeq set, Engelhart et al. 2022, doi:10.1038/s41597-022-01779-4, as distributed in FLAb.